# In paper PMC2939917 (Bioorganic & medicinal chemistry, 2010):
# By UniProt entry, the sequences of proteins in these tests, tags left out.
# UniProt P19020, whole entry: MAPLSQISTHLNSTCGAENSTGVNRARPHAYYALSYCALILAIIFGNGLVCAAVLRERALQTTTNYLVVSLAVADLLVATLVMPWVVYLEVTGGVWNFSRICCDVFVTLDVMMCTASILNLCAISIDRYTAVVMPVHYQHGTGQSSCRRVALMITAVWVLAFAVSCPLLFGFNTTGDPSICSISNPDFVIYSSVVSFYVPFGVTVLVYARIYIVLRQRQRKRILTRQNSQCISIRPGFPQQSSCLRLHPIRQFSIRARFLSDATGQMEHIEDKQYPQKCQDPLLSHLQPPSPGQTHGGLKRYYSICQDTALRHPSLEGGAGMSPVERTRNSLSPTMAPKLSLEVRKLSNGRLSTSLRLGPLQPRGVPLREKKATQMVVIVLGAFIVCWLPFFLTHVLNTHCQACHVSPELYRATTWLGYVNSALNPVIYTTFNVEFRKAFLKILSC
# Target: rat D3 receptors (Rattus norvegicus, UniProt P19020)
# Test: [3H]spiperone binding inhibition, HEK-293 cells expressing D3 receptors
# Settings: selectivity, Ki D2 / Ki D3, [3H]spiperone binding
compound,measurement,value
"CCCN(CCC)C1CCc2c(O)cccc2C1 (single isomer, unassigned; (-)) [(−)-5-OH-DPAT]",D2/D3 (ratio of Ki),43.2
